These results are taken from US20110320392A1, “METHODS FOR PREDICTING CANCER RESPONSE TO EGFR INHIBITORS” (priority 2009, published 2011).

The experiment concerns metastatic colorectal cancer (mCRC). Nature of the experiment: progression-free survival of cetuximab-treated colorectal cancer patients stratified by Predictive Marker profile. The format is in vivo, human. As for the experimental part: Over 100 CRC patients with colorectal cancer were biopsied from metastatic sites and the mutational status of KRAS was determined and gene expression data generated and reported Khambata-Ford et al.
These reported data were extracted in series matrix format from Gene Expression Omnibus (GEO) record GSE585112. The data from that study were scaled by the authors to mean intensity of 1500. Therefore, the data matrix was multiplied by a factor of 0.333 in order to reflect the mean intensity value of the data used to generate our predictive response (500). This direct linear relationship was confirmed by scaling experimental data to both values using Expression Console (Affymetrix, Santa Clara, Calif.) and observing the ratios on a probe by probe basis. […] The clinical response data and KRAS status were extracted from the supplementary files provided by Khambata-Ford et al.
The Predictive Markers set forth in Table 1 were imported into R for diagonal linear discriminant analysis (“DLDA”) according to Balko et al.
Data were separated into three datasets: KRAS wildtype, KRAS-mutant, or all patients combined. After sensitivity prediction on each of the datasets, the results were imported into Excel (Microsoft, Redmond, Wash.) and cross referenced with response and progression free survival (PFS).
All statistical analyses were performed using Prism (Graphpad, La Jolla, Calif.) and checked using JMP (SAS, Cary, N.C.). For comparisons of median progression free survival, the 2-tailed Mann-Whitney U test was performed between groups predicted to be sensitive and those predicted to be resistant. Kaplan-Meier survival curves were generated based on the PFS data reported by Khambata-Ford et al and analyzed by the log-rank statistic. These analyses were performed on only the KRAS-wildtype patient data first, and then repeated on all patient data as well as the KRAS-mutant population independently for comparison.

The mark [1] stands for this setting: entire cohort regardless of KRAS status, 'resistant' subgroup.
The mark [2] stands for this setting: entire cohort regardless of KRAS status, 'sensitive' subgroup.
The mark [3] stands for this setting: mCRC KRAS-wildtype patients predicted 'resistant' (180-gene profile).
[4] abbreviates: mCRC KRAS-wildtype patients predicted 'sensitive' (180-gene profile).

On to cetuximab, for which the “mean PFS” value under setting [1] is given as 60.5 days, the “mean PFS” value under setting [2] is 104.7 days, the “mean PFS” value under setting [3] was 63 days and the “mean PFS” value under setting [4] was 117 days. The “median PFS” value under setting [1] is on record as 57.5 days, the “median PFS” value under setting [2] was 60 days, the “median PFS” value under setting [3] is recorded as 56 days and the “median PFS” value under setting [4] is 88 days.
